Literature values in publication PMC6838683, “Discovery of Human Signaling Systems: Pairing Peptides to G Protein-Coupled Receptors” (Cell, 2019).
Where two headings read alike, the source gives them in different places.

Target: human GPCRs
Set-up: method as in Guide to Pharmacology database
Conditions: max reported value, ref Guide to Pharmacology database, cited from earlier work
Text: Supplement mmc1.xlsx, sheet "HumanGPCRLigands" | column: pKi_value; pKd_value; pEC50_value; pIC50_value

## CC(=O)OCC[N+](C)(C)C [acetylcholine]
Receptor acm2_human (CHRM2, P08172)
  pKi_value: 6.5
Receptor acm3_human (CHRM3, P20309)
  pKi_value: 5.4
Receptor acm4_human (CHRM4, P08173)
  pKi_value: 5.6
Receptor acm5_human (CHRM5, P08912)
  pKi_value: 6.1
